# logP (octanol/water) values, as collected for the OPERA models

The octanol-water partition coefficient is given as log10; larger values mean a more lipophilic compound.
"–" marks a cell with nothing listed here.
"via" names the databases from which the curators took the value.

Listed for C[SiH](Cl)Cl [Methyldichlorosilane]: log Kow 1.7 (via PubChem). CC(C)(C)N.CCCC(NC(C)C(=O)N1C(C(=O)O)CC2CCCCC21)C(=O)OCC (centres undefined) [Perindopril erbumine] has log Kow 2.6 (via PubChem). The entry for C=C[C@]1(C)C[C@@H](OC(=O)CS[C@@H]2C[C@H]3CC[C@@H](C2)N3C)C2(C)[C@H](C)CC[C@]3(CCC(=O)[C@@H]23)[C@@H](C)[C@@H]1O [Retapamulin] lists log Kow 5 (via PubChem). CCCCCCCCCCCCCCCCCC(N)=O [Octadecanamide] is reported with log Kow 6.7 (via PubChem). The entry for CCN1CCOCC1 [N-Ethylmorpholine] lists log Kow 0.08 (via eChemPortal).

Listed for N[C@@H](Cc1ccc(O)c(Cl)c1)C(=O)O [3-Chloro-L-tyrosine]: log Kow -0.89 (via OCHEM). Cl.NCC1CN(c2ccc(N3CCOCC3=O)cc2)C(=O)O1 (centres undefined) is reported with log Kow -0.1 (via eChemPortal). For O=C(OCC1OC(n2ccc(=O)cc2O)C(OC(=O)c2ccccc2)C1OC(=O)c1ccccc1)c1ccccc1 (centres undefined) the data give log Kow -0.6 (via OCHEM). For Cc1c(Nc2cc(S(=O)(=O)[O-])c(N)c3c2C(=O)c2ccccc2C3=O)cc(S(=O)(=O)[O-])cc1Nc1nc(F)nc(F)c1Cl.[Na+].[Na+] the data give log Kow -4.2 (via eChemPortal). O=C(Nc1ccc(Cl)cc1)c1cc2ccccc2cc1O [2-Naphthalenecarboxamide, N-(4-chlorophenyl)-3-hydroxy-] has log Kow 2.97 (via eChemPortal).

BrC(Br)C(Br)Br [1,1,2,2-Tetrabromoethane] has log Kow 2.8 (via PubChem). C1COC2CC2C1 (centres undefined) [2-Oxabicyclo[4.1.0]heptanato] has log Kow 1.26 (via OCHEM). CC(C)(CO)[C@@H](O)C(=O)NCCC(=O)O [Pantothenic acid] is reported with log Kow -1.69 (via OCHEM). O=C([O-])c1[nH]n(-c2ccc(S(=O)(=O)[O-])cc2)c(=O)c1/N=N/c1ccc(S(=O)(=O)[O-])cc1.[Na+].[Na+].[Na+] [C.I. Acid Yellow 23] is reported with log Kow -1.572 (via eChemPortal). O=C(O)c1ccccc1C(=O)c1ccccc1 [Benzoic acid, 2-benzoyl-] has log Kow 2.18 (via eChemPortal).

The entry for Cc1ccc(Cl)cc1NC(=O)c1cc2ccccc2cc1O lists log Kow 2.8 (via eChemPortal). For N[C@@H](Cc1cc(I)c(O)c(I)c1)C(=O)O [3,5-Diiodo-L-tyrosine] the data give log Kow 0.37 (via OCHEM). The entry for Oc1cc(Cl)c(Br)cc1Cl [4-Bromo-2,5-dichlorophenol] lists log Kow 2.42 (via OCHEM). Clc1cc(Cl)c(Cl)c(-c2ccc(Cl)c(Cl)c2)c1 [2,3,3',4',5-Pentachlorobiphenyl] has log Kow 6.71 (via OCHEM). For CCOC(=O)CC(CC(=O)OCC)(OC(C)=O)C(=O)OCC [Citric acid, triethyl ester, acetate] the data give log Kow 1.34 (via eChemPortal).

The entry for C=C(C)C(=O)OCCOC(=O)CC(C)=O [2-((2-Methyl-1-oxoallyl)oxy)ethyl acetoacetate] lists log Kow 0.9 (via eChemPortal). For COc1ccc(/N=N/c2c(S(=O)(=O)[O-])cc3cc(Nc4nc(F)nc(F)c4Cl)ccc3c2O)c(S(=O)(=O)[O-])c1.[Na+].[Na+] the data give log Kow -2.1 (via eChemPortal). Listed for CCCCCCc1ccc(-c2ccc(C#N)cc2)cc1 [4-Hexyl-4'-cyanobiphenyl]: log Kow 6.09 (via OCHEM). The entry for C=CCCCCCCCCC(=O)NCCOC(=O)CC(C(=O)[O-])S(=O)(=O)[O-].[Na+].[Na+] (centres undefined) lists log Kow -3.1 (via eChemPortal). The entry for C[Si](C)(C)N[Si](C)(C)C [Hexamethyldisilazane] lists log Kow 1.205 (via eChemPortal).

The entry for O[C@H]1O[C@H](COCc2ccccc2)[C@@H](OCc2ccccc2)[C@H](OCc2ccccc2)[C@H]1OCc1ccccc1 lists log Kow 5.9 (via eChemPortal). For Cc1ccc(S(=O)(=O)[N-]Cl)cc1.[Na+] [Chloramine-T] the data give log Kow -1.3 (via eChemPortal). CC(=O)Nc1cc(Nc2nc(F)nc(F)c2Cl)ccc1/N=N/c1ccc2cc(S(=O)(=O)[O-])cc(S(=O)(=O)[O-])c2c1.[Na+].[Na+] is reported with log Kow -2.1 (via eChemPortal). The entry for C[C@](N)(Cc1ccc(O)c(O)c1)C(=O)O [(-)-Methyldopa] lists log Kow -1.79 (via PubChem). For COB(OC)OC [Trimethyl borate] the data give log Kow -0.77 (via eChemPortal).

Listed for O=S(=O)([O-])c1ccc2c(/N=N\c3ccc(S(=O)(=O)[O-])c4ccccc34)c(O)c(S(=O)(=O)[O-])cc2c1.[Na+].[Na+].[Na+] [Amaranth]: log Kow -5.13 (via eChemPortal).

The last 4 entries again:

SMILES	name	log Kow	via
CC(=O)Nc1cc(Nc2nc(F)nc(F)c2Cl)ccc1/N=N/c1ccc2cc(S(=O)(=O)[O-])cc(S(=O)(=O)[O-])c2c1.[Na+].[Na+]	–	-2.1	eChemPortal
C[C@](N)(Cc1ccc(O)c(O)c1)C(=O)O	(-)-Methyldopa	-1.79	PubChem
COB(OC)OC	Trimethyl borate	-0.77	eChemPortal
O=S(=O)([O-])c1ccc2c(/N=N\c3ccc(S(=O)(=O)[O-])c4ccccc34)c(O)c(S(=O)(=O)[O-])cc2c1.[Na+].[Na+].[Na+]	Amaranth	-5.13	eChemPortal

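The numbers are reported measurements, compiled and curated for the OPERA QSAR suite. A listed value is a point estimate from one report or more. How each value was measured is not recorded, so precision varies. Where a salt, mixture or single isomer is drawn, the source does not say that exactly this form was tested. Unmarked limits or estimates from the upstream databases cannot be ruled out.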

From the experimental data distributed with OPERA 2.9.